Source: patent US9409924B2, “Selective glycosidase inhibitors and uses thereof” (Alectos Therapeutics Inc., priority 2011, dated 2016)

Tested on: LLC-PK1 cells
Test: Assay for determination of apparent permeability (Papp), bi-directional transport
Conditions: 1 μM test compound, t=3 h, average of A to B and B to A

| Papp LLC-PK1 cells (10^−6 cm/s) | SMILES |
| --- | --- |
| <1.0 10^−6 cm/s | CCNC1=N[C@@H]2[C@@H](O)[C@H](O)[C@@H](CO)O[C@@H]2S1 |
| <1.0 10^−6 cm/s | CN(C)C1=N[C@@H]2[C@@H](O)[C@H](O)[C@@H](CO)O[C@@H]2S1 |
